Patent US8476222B2, “Isolated peptides from Actinomadura namibiensis” (priority 2006, dated 2013)
In brackets after ≈: the same amount, converted by molar mass. Entries after “also recorded” stand apart in the source; their conditions may differ.

Legend:
[1] = system: Staphylococcus aureus 285; test: Antibacterial activity, agar dilution MIC; format: cell-based; details: Müller-Hinton agar, 37° C., 17 hours, aerobic
Procedure: (§1) After culturing the organisms in liquid beef extract broth, the suspensions of bacteria were adjusted to a defined density by dilution with fresh culture medium (5·10^5 organisms/ml).
(§2) Labyrinthopeptin (III) was dissolved and diluted with water in a geometric dilution series (factor 2). 1.5 ml of the solution in the individual dilution steps were mixed with 13.5 ml liquid agar (Müller-Hinton agar) at approximately 45° C.
(§3) The maximum compound concentration in the petri dish was usually 100 mg/l. An agar plate with no compound served as a control.
(§4) After the culture medium had cooled and solidified, the agar plates were inoculated simultaneously with 20 different bacterial strains using a Multipoint Inoculator delivering 5·10^4 colony forming units (cfu) per inoculation spot and then incubated at 37° C. for 17 hours under aerobic conditions.
(§5) After incubation, the plates were examined macroscopically for the lowest compound concentration at which bacterial growth is no longer visible. A single colony or a haze growth at the inoculation spot was disregarded.
(§6) The antibacterial effect was assessed as the Minimum Inhibitory Concentration of the test compound (MIC: lowest compound concentration at which bacterial growth is no longer macroscopically visible): […]

[2] = system: Staphylococcus aureus 503; test: Antibacterial activity, agar dilution MIC; format: cell-based; details: Müller-Hinton agar, 37° C., 17 hours, aerobic
Procedure: as §1, §2, §3, §4, §5, §6

[3] = system: Staphylococcus aureus SG 511; test: Antibacterial activity, agar dilution MIC; format: cell-based; details: Müller-Hinton agar, 37° C., 17 hours, aerobic
Procedure: as §1, §2, §3, §4, §5, §6

Streptococcus faecium D = test: Antibacterial activity, agar dilution MIC; format: cell-based; details: Müller-Hinton agar, 37° C., 17 hours, aerobic
Procedure: as §1, §2, §3, §4, §5, §6

[4] = system: Streptococcus pyogenes 308 A; test: Antibacterial activity, agar dilution MIC; format: cell-based; details: Müller-Hinton agar, 37° C., 17 hours, aerobic
Procedure: as §1, §2, §3, §4, §5, §6

[5] = system: Streptococcus pyogenes 77 A; test: Antibacterial activity, agar dilution MIC; format: cell-based; details: Müller-Hinton agar, 37° C., 17 hours, aerobic
Procedure: as §1, §2, §3, §4, §5, §6

Herpes (DNA), Simples 1 = test: Antiviral activity in cell culture; format: cell-based, Herpes Simples 1; details: host organism Hela cells
Procedure: (§7) Viruses can only multiply in living cells. The viral studies were therefore carried out in cell cultures. The viruses were selected either because of their importance as infectious agents or typical biochemical or morphological structures.
(§8) A dilution series of Labyrinthopeptin (III) was prepared in 96-well microtiter plates. Hela or Vero cells, according to the infecting virus, are added to give a confluent monolayer within 24 h of incubation. After incubation for 3 hours, the respective virus is added to the cells in a concentration which is expected to completely destroy the cell monolayer within 2 days. The cultures are incubated at 37° C. in a gassed incubator (5% CO2 in air). After 24 hours the maximal tolerated dose of test compound (MTD) in the cell culture is evaluated by microscopic examination. The results were compared with non-infected tissue control and a corresponding infection control: […]

Adenovirus (DNA), 5″ = test: Antiviral activity in cell culture; format: cell-based, Adenovirus 5; details: host organism Hela cells
Procedure: as §7, §8

[6] = system: SNI mouse model of neuropathic pain; test: Spared nerve injury (SNI) mouse model of neuropathic pain, tactile allodynia (von Frey); format: in vivo
Description: Labyrinthopeptin (III) was studied in the spared nerve injury (SNI) mouse model of neuropathic pain in order to proof the activity on tactile allodynia. Under general anesthesia, the two major branches of the sciatic nerve in adult male C57B6 mice (22.7 g±0.26SEM) have been ligated and transected, with the sural nerve left intact. Tactile allodynia has been determined with the automatic von Frey test: using a dump needle stick, the plantar skin of hind paws was exposed to a pressure stimulus of increasing intensity up to 5 g. The force in grams at which the animal responded with hindpaw withdrawal was used as a read-out for tactile allodynia. The study was performed 7 days after nerve lesion over 6 hours with an additional measurement after 24 hours. Within two days after nerve transection, tactile allodynia developed completely and remained stable over at least two weeks. The compound was administered intravenous as a single application (3 mg/kg). As a vehicle for the intravenous application was the 1:1:18 (Ethanol:Solutol:phosphate buffered saline) vehicle chosen.
Paw withdrawal threshold (PWT) measurements have been used to calculate significant treatment effects, and for AUC calculations over a reference time period (6 hours) and subsequent % benefit calculations.
Dunnett analysis and gave significant treatment effects for both compounds. The percent benefit of the treatment was evaluated using the |AUC1-6 hour| values of the ipsilateral vehicle group (0% benefit) and all |AUC1-6 hour| values of the contralateral sides of all three groups (100% benefit=maximal possible effect). Compared to these margins Labyrinthopeptin (III) achieved 97% benefit.

[7] = system: CAR mouse model of inflammatory triggered pain; test: Carrageenan (CAR) induced hindpaw inflammation model, thermal hyperalgesia; format: in vivo; details: for percent benefit (|AUC1-6 hour| of paw withdrawal latency): C57B6 mice
Procedure: Labyrinthopeptin (III) was studied in the carrageenan (CAR) induced hindpaw inflammation model in mice in order to proof the activity on thermal hyperalgesia, a typical readout for inflammatory triggered pain.
Induction of hind paw inflammation: Under slight general Isofluran anesthesia, CAR 2% (Sigma, Deisenhofen, Germany) in 20 μl saline was injected into the plantar aspect of both hind paws in male C57B6 mice. Paw withdrawal latencies (PWL) were determined on exposure of the paws to a defined thermal stimulus using a commercially available apparatus (Plantar Test Ugo Basile Biological Research Apparatus, Comerio, Italy) fitted with a mini camera to ensure proper placement of the infrared heat below the hind paw of interest. Mice were kept in the test cages over the whole study period (6 hours).
Measurement of thermal hyperalgesia: The timer which measures the duration of reflecting infrared light by the hind paw is started by the investigator and stopped, if the animal is shaking the affected hind paw. A cut off was set at 16 seconds to prevent tissue damage. The study was performed before and over 6 hours after CAR injection. Paw withdrawal latencies in seconds were used as readout for further analysis.
As a vehicle for the intravenous application was the 1:1:18 (Ethanol:Solutol:phosphate buffered saline) vehicle chosen.
Paw withdrawal latencies (PWL) measurements have been used to calculate significant treatment effects, and for AUC calculations over a reference time period (6 hours) and subsequent % benefit calculations. For the statistical analysis the PWL values of both hindpaws were used in two ways: first, with a 2-way analysis of variance (ANOVA) based on the PWL values for specific times (within a period of 6 hours) and second with a 1-way ANOVA on non-transformed delta AUC values |AUC1-6 hour|.
Dunnett analysis and gave significant treatment effects for both dosages. The percent benefit of the treatment was evaluated using the |AUC1-6 hour| values of the vehicle group (0% benefit) and all |AUC1-6 hour| values before CAR was injected (theoretical baseline over 6 hours=maximum possible effect=100% effect). Compared to these margins the 1 mg/kg dosage group achieved 37 and the 10 mg/kg group 34% benefit.

CC(C)C[C@@H]1NC(=O)[C@]23CSC[C@H](NC(=O)[C@H](C)NC(=O)[C@H](Cc4ccccc4)NC1=O)C(=O)N[C@H](C(=O)O)CSSC[C@H](NC(=O)[C@@H]1CSC[C@]4(C[C@H](N)C(=O)N[C@@H](CC(=O)O)C(=O)N[C@@H](Cc5c[nH]c6ccccc56)C(=O)N4)C(=O)N[C@@H](CC(C)C)C(=O)N[C@@H](Cc4c[nH]c5ccccc45)C(=O)N[C@@H](CCC(=O)O)C(=O)N1)C(=O)N[C@@H](C2)C(=O)N[C@@H]([C@@H](C)O)C(=O)NCC(=O)N3 [Labyrinthopeptin (III)]
MIC [1]: 12.5 µg/mL (≈ 6.5 µM) | MIC [2]: 3.13 µg/mL (≈ 1.63 µM) | MIC [3]: 12.5 µg/mL (≈ 6.5 µM) | MIC (Streptococcus faecium D): 6.25 µg/mL (≈ 3.25 µM) | MIC [4]: 3.13 µg/mL (≈ 1.63 µM) | MIC [5]: 3.13 µg/mL (≈ 1.63 µM) | Inhibition (Herpes (DNA), Simples 1): 133.33 mg/L | Inhibition (Adenovirus (DNA), 5″): 133.33 mg/L | percent benefit (|AUC1-6 hour| of paw withdrawal threshold) ([6]; 3 mg/kg intravenous single application, C57B6 mice, 7 days after nerve lesion): 97 % benefit | paw withdrawal threshold (PWT) versus vehicle group over time ([6]; 3 mg/kg intravenous, 2-way ANOVA, Dunnett's test): highly significant differences from the vehicle group from 1 to 6 hours after intravenous application; also recorded: The effect was gone 24 hours after application | effect on tactile allodynia (conclusion) ([6]; 3 mg/kg intravenous, SNI mouse model): significantly reduces tactile allodynia | percent benefit (|AUC1-6 hour| of paw withdrawal latency) ([7]; 1 mg/kg intravenous): 37 % benefit | percent benefit (|AUC1-6 hour| of paw withdrawal latency) ([7]; 10 mg/kg intravenous): 34 % benefit | effect on thermal hyperalgesia (conclusion) ([7]; intravenous, CAR mouse model): significantly reduced thermal hyperalgesia | paw withdrawal latency (PWL) versus vehicle group over time ([7]; intravenous, both dosages (1 and 10 mg/kg), 2-way ANOVA, Dunnett's test): highly significant differences from the vehicle group from 1 to 2 hours after intravenous application; also recorded: The effect was gone 4 hours after application | stability on exposure to air: oxidized upon exposure to air to the respective sulfoxides
